## Antibody variant affinities, Ab-14 light chain, assay B

All variants were tested on one target, the spike HR2 peptide PDVDLGDISGINAS (SARS-CoV-2).

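Phage display of a naive human antibody library on the peptide gave the parent. These sequences belong to a second round, designed from the earlier measurements on random variants of the parent. Several design methods are mixed in this list. AlphaSeq pools MATa yeast showing the antibodies with MATalpha yeast showing the peptide. Pairs that bind mate more often; barcode pairs of the diploids are counted by sequencing. The ratio of observed to expected reads was calibrated, replicate by replicate, on BCL2-family standards whose Kd was known from biolayer interferometry. The assay was run in six technical replicates.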

Each scFv is VH, the linker GGGGSGGGGSGGGGS, VL, as in the parent Ab-14, and differs from it in the CDRs of the light chain only.
VH: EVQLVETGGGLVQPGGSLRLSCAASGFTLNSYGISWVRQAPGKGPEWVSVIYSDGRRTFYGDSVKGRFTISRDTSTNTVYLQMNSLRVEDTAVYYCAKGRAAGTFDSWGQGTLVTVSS
VL: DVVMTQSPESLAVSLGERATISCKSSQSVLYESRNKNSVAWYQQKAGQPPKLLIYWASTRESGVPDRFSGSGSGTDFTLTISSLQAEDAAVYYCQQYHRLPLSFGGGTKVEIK

Substitutions are numbered in sequence along the VL above, starting at 1 (not Kabat). Variants here have at most six changes. Each Kd is an estimate from the mating assay, the geometric mean of the replicates in which the pair was seen; lower is stronger. A pair that was not seen in any replicate is written "no signal"; this usually means weak binding, but a binder can also be missed. The parent sequence was in this pool as ten entries: three were never detected, three once, and four in most replicates, with averages from 2.2 nM to 240 nM.

With S25F/V29W/N35Q/W56N/T59Q the result was 710 pM (6 of 6 replicates; controls 0 of 18). The variant S25F/S26E/V29H/L30G/W56N/H98W gave 1.5 nM (6 of 6 replicates; controls 4 of 18). The variant V29W/L30Y/S33D/N35V/W56G gave 2.2 nM (6 of 6 replicates; controls 0 of 18). The variant S25V/S26P/Q27G/S28E/V29Q/W56E showed 4.0 nM (6 of 6 replicates; controls 0 of 18). The variant S25L/V29Q/N35M/S38A/W56N showed 760 pM (6 of 6 replicates; controls 1 of 18). The variant S26K/K36F/W56N/Q96D/L102F showed 1.8 nM (6 of 6 replicates; controls 1 of 18). For Q27E/R34N/K36F, the assay gave 20 nM (4 of 6 replicates; controls 1 of 18).

The variant S25I/Q27E/Y31F/E32Q/A57G showed 3.5 nM (6 of 6 replicates; controls 0 of 18). For S25V/S26M/W56N, the assay gave 550 pM (6 of 6 replicates; controls 0 of 18). The variant L30Y/Y31E/R34G/R99T showed 210 nM (6 of 6 replicates; controls 1 of 18). The variant V29F/N35S/S38P/W56G/P101G showed 52 nM (6 of 6 replicates; controls 0 of 18). For S25L/K36W/W56N/S62Q, the assay gave 390 pM (6 of 6 replicates; controls 1 of 18). With K24L/S25L/V29M/E61A/Q95N/R99I the result was 5.0 nM (6 of 6 replicates; controls 0 of 18). For S25L/S26M/W56G/T59Q, the assay gave 2.9 nM (6 of 6 replicates; controls 1 of 18).

For Q27I/V29E/W56E/S62E, the assay gave 970 pM (6 of 6 replicates; controls 0 of 18). The variant R34D/W56Q/E61I/S62V/Q96A showed 11 nM (6 of 6 replicates; controls 0 of 18). For K36S/S38N/Y97C, the assay gave no signal (0 of 6 replicates; controls 0 of 18). With V29E/S33V/W56G/S62L/P101M the result was 32 nM (1 of 6 replicates; controls 0 of 18). The variant S25I/L30A/K36R/S38M/W56A gave 12 nM (6 of 6 replicates; controls 0 of 18). The variant S25L/V29E/K36P/W56N/E61L gave 470 pM (6 of 6 replicates; controls 2 of 18). With S25V/V29N/L30D/W56N the result was 910 pM (6 of 6 replicates; controls 1 of 18).

With W56H/H98S the result was 10 nM (6 of 6 replicates; controls 1 of 18). With S25L/W56N/E61S the result was 570 pM (6 of 6 replicates; controls 3 of 18). The variant S25L/S26R/V29T/K36P/W56E showed 4.1 nM (6 of 6 replicates; controls 0 of 18). The variant L30S/Y31N/S62L showed no signal (0 of 6 replicates; controls 0 of 18). The variant S25V/Q27M/V29E/W56N showed 750 pM (6 of 6 replicates; controls 1 of 18). With V29D/K36S/W56H the result was 1.6 nM (6 of 6 replicates; controls 0 of 18). With Q27E/V29D/L30T/K36Y/W56N/P101F the result was 11 nM (5 of 6 replicates; controls 0 of 18).

With S25I/L30E/N35D/W56N/S62Q the result was 12 nM (6 of 6 replicates; controls 3 of 18). With Y31T/S33T/R34S/W56A the result was 1.7 nM (6 of 6 replicates; controls 1 of 18). With S25V/V29Q/S38A/W56N the result was 560 pM (6 of 6 replicates; controls 2 of 18). The variant V29D/K36G/W56N/T59Y/S62D showed 1.6 nM (6 of 6 replicates; controls 1 of 18). For S25L/L30E/S38N/W56N/T59Q, the assay gave 340 pM (6 of 6 replicates; controls 0 of 18). The variant Y31S/N35L/H98F gave 35 nM (6 of 6 replicates; controls 0 of 18). The variant K24H/Q27P/L30T/W56N showed 1.4 nM (6 of 6 replicates; controls 0 of 18).

With K24S/S25M/K36W/W56N the result was 970 pM (6 of 6 replicates; controls 1 of 18). With S25L/R34N/E61C/R99G the result was 88 nM (6 of 6 replicates; controls 0 of 18). The variant V29L/K36Q/W56G/L102A gave 530 nM (5 of 6 replicates; controls 2 of 18). The variant K24S/S26P/Y31Q/R34E/S62Q/L102C gave no signal (0 of 6 replicates; controls 0 of 18). For S62H/L100M, the assay gave no signal (0 of 6 replicates; controls 0 of 18). For S25L/Q27L/L30I/R34T/W56K, the assay gave 8.0 nM (6 of 6 replicates; controls 0 of 18). For K36S/W56H, the assay gave 3.1 nM (6 of 6 replicates; controls 1 of 18).

The variant Q27D/S28G/S33D/R34D showed 31 nM (6 of 6 replicates; controls 0 of 18). With E32Y/W56A/E61Y the result was 280 nM (3 of 6 replicates; controls 0 of 18). For S25M/V29F/W56G/Q96N, the assay gave 1.2 nM (6 of 6 replicates; controls 0 of 18). For V29F/S33A/K36F/W56D, the assay gave 630 pM (6 of 6 replicates; controls 0 of 18).

Again, the first 4 entries without any signal:

changes,apparent Kd,seen in,empty controls
K36S/S38N/Y97C,no signal,0 of 6,0 of 18
L30S/Y31N/S62L,no signal,0 of 6,0 of 18
K24S/S26P/Y31Q/R34E/S62Q/L102C,no signal,0 of 6,0 of 18
S62H/L100M,no signal,0 of 6,0 of 18

Empty control strains, which show no peptide, gave a signal in 4% of pairings with all light chain designs; the median was 430 nM and 95% of these signals were weaker than 38 nM. No background was subtracted. For each scFv, signals with the empty controls are counted beside the result. The authors' rule: three or more of the six replicates give a measured affinity, fewer mean a poor binder. Values of this round are not directly comparable with the first-round values of the same sequences.

Data: MIT Lincoln Laboratory AlphaSeq set, Li et al. 2023, doi:10.1038/s41467-023-39022-2, as distributed in FLAb.